Assay results published in PubChem BioAssay AID1347120 (National Center for Advancing Translational Sciences (NCATS), 2019).
Several values for one entry are separate records, joined by “and”; a condition that tells them apart may be missing. Equal values may be shown once. Only a part is listed here, and it is no random draw. Some of these compounds have results that are not shown, active ones among them. Records with an inconclusive call do not appear. Activity calls are given as the source filed them. The call rests on the fitted dose curve; in most records, active means well fitted activation curve with a large enough effect; inconclusive means small, poorly fitted or top-dose-only effect; inactive means no such curve, though single readings can be large or run the other way.

test: qHTS for Suppressors of FUS Proteinopathy: Primary screen using FUS-linked yeast assay;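 further: plate controls were DMSO vehicle for no effect and reference control for full effect; nearly all actives have a fitted effect of over 55% in size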; details: S. cerevisiae FUS-expressing, OD600, 24 h; at 76.6 µM (top of the series)
Text: Several widespread neurodegenerative diseases, including Alzheimer disease, Huntington disease, Frontotemporal Lobar Degeneration (FTLD) and Amyotrophic Lateral Sclerosis (ALS), share a common pathological feature, namely accumulation of specific protein aggregates in diseased tissue. These diseases which is associated with protein misfolding (proteinopathies) have become increasingly problematic as the population ages and life expectancies are extended. Most proteinopathies are currently incurable, a situation confounded by the fact that the basis of neurodegeneration is generally poorly understood. There exists urgent and significant need to find therapeutics that can inhibit the toxicity associated with protein aggregation. A novel approach to understand the underlying mechanisms of neurodegenerative diseases has recently emerged in which the disease conditions are modeled in the yeast (Saccharomyces cerevisiae), a tractable eukaryotic organism with conserved protein quality control mechanisms. Yeast offers quick and reliable genetic manipulations and can be easily tailored to high-throughput screening (HTS).
For this project, a yeast model of the FUS proteinopathies (a spectrum of neurodegenerative diseases that include ALS and a subtype of FTLD) was generated and employed. The cytoplasmic accumulation of the DNA/RNA-binding protein FUS (also known as TLS) is causative to both familial and sporadic forms of ALS and FTLD. This yeast model recapitulates neuronal pathology by showing severe cytotoxicity associated with cytoplasmic accumulation of FUS aggregates and a specific interaction between FUS and TDP-43, another ALS-associated protein. […] Specifically, the cellular accumulation of misfolded FUS that disrupts RNA homeostasis in both yeast and higher eukaryotes. This model was validated to be suitable for quantitative HTS (qHTS) use for finding genetic or chemical factors that restore growth. […] Identified compounds that inhibits FUS-yeast toxicity is flagged, re-acquired, and validated for further investigation and optimization.
NIH Chemical Genomics Center [NCGC]
NIH Molecular Libraries Probe Production Centers Network [MLPCN]
Assay Submitter (PI): Frank Shewmaker PhD, Uniformed Services University of the Health Sciences
Compound CP55940 was used as the positive control. Column 1 was treated with CP55940 titration from 92uM (final concentration, 1:2 dilution), while Column 2 was treated with top dose 92uM. Columns 3 and 4 were treated with DMSO only as negative control to assess background and noise signal.
Four hundred fifty microliter of cultured yeast (in 20mL rich medium) provided by Dr. Shewmaker lab was incubated at 30C at 99% humidity for 3hr. The culture was then spun down at 4000rpm for 5min and the cell pellet was resuspended in 2mL of Sdmin Media + ALU(330) + 2.5% Raffinose. One hundred microliter of the suspension was added to 900uL of water and OD of the solution was obtained. Twenty mL of responding medium (provided by Shewmaker lab) + 2.5% raffinose was added to ensure cell density of 0.1; the solution was incubated overnight. Working cell solution (FUS-yeast in Sdmi + Sdmi + 1X ALU + 2% galactose media) was prepared (final OD at 0.005) and 3uL was dispensed in a 1536-well Aurora high based clear bottom assay plates. Controls and library compounds (at various final concentrations from 40uM to 0.32uM) were added using a 1536-well pin array using the Kalypsys pin-tool. The plates were then incubated for 24hrs in a cell-culture incubator (30C; 99% humidity). Absorbance at 600nm was then read using the PerkinElmer ViewLux plate reader.

| SMILES | growth rescue (activation) |
| --- | --- |
| COc1ccc(Cl)cc1C(=O)NCC1(N(C)C)CCCCC1 | inactive: 8.97% |
| COc1cccc(C(=O)NCC2(N3CCCCC3)CCCCC2)c1 | inactive: 24.5% |
| COc1ccc(C(=O)NCC2(N(C)C)CCCCC2)cc1Cl | inactive: -16.5% |
| O=C(NCC1(N2CCCCC2)CCCCC1)c1cccc(Cl)c1 | inactive: 2.74% |
| CN(C)C1(CNC(=O)c2ccc(Br)cc2)CCCCC1 | inactive: 27.5% |
| COc1cc(C(=O)NCC2(N(C)C)CCCCC2)c([N+](=O)[O-])cc1OC | inactive: -21.8% |
| C=C(C)C#CC(O)(C(=O)OC1CCN(C)CC1)c1ccccc1 (stereo not given) | inactive: 16.8% |
| COc1ccc(Br)c(C(=O)NCC2(N3CCCCC3)CCCCC2)c1 | inactive: -20.4% |
| COc1cc(C(=O)NCC2(N(C)C)CCCCC2)cc(OC)c1OC | inactive: -13.7% |
| Cc1cccc(C(=O)NCC2(N(C)C)CCCCC2)c1 | inactive: -20.9% |
| O=C(OCCN1CCCC1)C(O)(c1ccccc1)c1ccccc1 | inactive: -5.47% |
| CC(C)Oc1ccc(C(=O)NCC2(N(C)C)CCCCC2)cc1 | inactive: -16.5% and inactive: 18.5% |
| CN(C)c1cccc(C(=O)NCC2(N(C)C)CCCCC2)c1 | inactive: -10% |
| COc1cccc(C(=O)NCC2(N3CCOCC3)CCCCC2)c1 | inactive: -23.7% |
| O=C(OC1CN2CCC1CC2)C(CO)(c1ccccc1)c1ccccc1 (stereo not given) | inactive: -11.9% |
| CC(C)COc1ccc(C(=O)NCC2(N(C)C)CCCCC2)cc1 | inactive: -7.35% |
| COc1cc(SC)ccc1C(=O)NCC1(N(C)C)CCCCC1 | inactive: -20.9% |
| CCN(CC)CC(C)C(C)OC(=O)C(O)(c1ccccc1)c1ccccc1 (stereo not given) | inactive: 19.8% |

| SMILES | growth rescue (activation) |
| --- | --- |
| CN(C)C1(CNC(=O)c2cccc(Cl)c2)CCCCC1 | inactive: -16.8% |
| CC(C)N1C(=O)CC2(CCN(CCOC(=O)C(O)(c3ccccc3)c3ccccc3)CC2)C1=O | inactive: 4.06% |
| Cc1ccc(C(=O)NCC2(N3CCCCC3)CCCCC2)cc1 | inactive: 17.1% |
| CN(C)C1(CNC(=O)c2ccccc2F)CCCCC1 | inactive: -20.8% |
| O=C(NCC1(N2CCCCC2)CCCCC1)c1cc([N+](=O)[O-])ccc1Cl | inactive: 16% |
| CN1[C@@H]2CC[C@H]1CC(OC(=O)C(O)(c1ccccc1)c1ccccc1)C2 (stereo not given in full) | inactive: -4.72% |
| O=C(NCC1(N2CCCCC2)CCCCC1)c1cc(F)c(F)cc1Cl | inactive: 7.05% |
| C=CCN1CCN(CCOC(=O)C(O)(c2ccccc2)c2ccccc2)CC1 | inactive: -32.2% |
| CCOc1cccc(C(=O)NCC2(N(C)C)CCCCC2)c1 | inactive: -5.13% |
| COc1ccc(C(=O)NCC2(N(C)C)CCCCC2)cc1 | inactive: -15.1% |
| O=C(NCC1(N2CCCCC2)CCCCC1)c1cccc(Br)c1 | inactive: -2.81% |
| Cc1cc(C(=O)NCC2(N3CCCCC3)CCCCC2)ccc1[N+](=O)[O-] | inactive: -5.71% |
| CCN1CCCC(OC(=O)C2(O)c3ccccc3C=Cc3ccccc32)C1 (stereo not given) | inactive: 2.81% |
| CN(C)c1ccc(C(=O)NCC2(N(C)C)CCCCC2)cc1 | inactive: 11% |
| CN(C)C1(CNC(=O)c2ccccc2[N+](=O)[O-])CCCCC1 | inactive: -26.7% |
| Cc1ccccc1C(=O)NCC1(N2CCCCC2)CCCCC1 | inactive: -38.9% |
| CCCCOc1ccccc1C(=O)NCC1(N(C)C)CCCCC1 | inactive: -17.6% |
